# Measured values from PubChem BioAssay AID1671193 (National Center for Advancing Translational Sciences (NCATS), 2021).
# This is a selection; strong and weak results do not stand in their true shares. Some results for these compounds are left out of this collection, so the calls shown say nothing about other tests. Inconclusive results are not listed. Activity calls are given as the source filed them. Calls come from the whole dose curve; as a rule, active = well fitted cell-killing curve with a large enough effect; inconclusive = small, poorly fitted or top-dose-only effect, or effect the other way; inactive = flat fitted curve, though single readings scatter.
# Test: GF-AFC viability counterscreen for inhibitors of alpha-synuclein gene (SNCA) expression; note: nearly all actives have a fitted effect of over 30% in size
# Details: HEK-293-SNCA-luc viability, GF-AFC fluorescence, 24 h; at 57.1 µM (top of the series)
# Excerpt: Assay Submitter (PI): Daniel R. Scoles Ph.D.
# Department of Neurology, University of Utah, Salt Lake City, Utah
# Accumulation of alpha-synuclein is a main underlying pathological feature of Parkinson's disease (PD) and alpha-synucleinopathies, for which lowering expression of the alpha-synuclein gene (SNCA) is a potential therapeutic avenue. Using a cell-based luciferase reporter of SNCA expression we performed a quantitative high throughput screen (qHTS) of 155,885 compounds in dose response. The screening assay was generated using genome editing to insert the luciferase gene downstream and in frame of the SNCA gene in HEK-293 cells (1). A viability counterscreen using GF-AFC was used to eliminate cytotoxic and false positive compounds. After in silico analysis (clustering, removal of frequent hitter nuisance chemotypes), inhibitor compounds from the primary screen were selected for follow up and re-tested at 11-doses in the SNCA-luc cells (luciferase and GF-AFC confirmation), and in CMV-luc expressing cell line to flag general transcriptional repressors.
# Described herein are the results of the GF-AFC viability counterscreen for SNCA inhibitors; inactivity (no decrease in fluorescence signal, not cytotoxic) is the desired output for this assay.
# 1. Dansithong, W., Paul, S., Scoles, D. R., Pulst, S. M., and Huynh, D. P. (2015) Generation of SNCA Cell Models Using Zinc Finger Nuclease (ZFN) Technology for Efficient High-Throughput Drug Screening. PLoS ONE 10, e0136930.
# SEQUENCE No. (e.g., 1, 2, 3, etc.); […] (e.g., Cells, Incubation, Reagent, etc.); VALUE; DESCRIPTION
# 1; Cells; 4 uL; Dispense 1500 HEK-293-SNCA-luc cells/well into Greiner 1536-well white / solid bottom tissue culture treated plate. The plate was covered with metal lids with gas-exchange holes.
# 2; Incubate; 24 hours; Incubate at 37C, 5% CO2, 95% RH.
# 3; Compounds; 23 nL; Compounds and controls were transferred via a Kalypsys Pin Tool (Wako USA) equipped with a 1536-slotted pin array. The plate was covered with metal lids with gas-exchange holes.
# 4; Incubate; 24 hours; Incubate at 37C, 5% CO2, 95% RH.
# 5; Dispense; 1 uL; Dispense Gly-Phe-7-amino-4-trifluoromethylcoumarin (GF-AFC, prepared at 125 uM in PBS) was added. The plate was covered with metal lids with gas-exchange holes.
# 6; Incubate; 30 min; Incubate at 37C, 5% CO2.
# 7; Detector; Fluorescence; Measure fluorescence with ViewLux microplate reader (PerkinElmer) equipped with 405/10 excitation and 540/25 emission filters.
# 8; Dispense; 3 uL; Dispense ONE-Glo ([…]) lucifase detection reagent was added to each well. Plates were covered with metal lids with gas-exchange holes.
# 9; Incubate; 15 min; Incubate at room temperature.
# 10; Detector; Luminescence; Measure luminescence with ViewLux microplate reader (PerkinElmer) equipped with clear filters.
# NOTES (numbers refer to sequence above)
# 1; HEK-293-SNCA-luc were cultured and suspended in phenol-red free DMEM (4.5 g/L glucose, 25 mM HEPES, cat #21063 (Thermo)).
# 3; Compounds were added to the assay plate in an 11-point intra plate dose response, 1:3 titration in DMSO with a final concentration range of […]. Vehicle-only plates, with DMSO being pin-transferred to every well, were inserted at the beginning of screening runs to confirm expected assay performance. Activity was normalized to wells containing medium only (-100% activity, full inhibition) and SNCA-luc cells treated with DMSO vehicle control (0% activity), contained on the same plate as test samples.
# 10; Signals were analyzed, and dose-response curves were fit using the Hill equation. Compounds in curve classes -1.1, -1.2, -2.1, -2.2 in the SNCA-luc assay were considered active. Compounds were eliminated from further consideration if also active (curve class -1.1, -1.2, -1.3, -1.4, -2.1, -2.2, -2.3, -2.4) in the GF-AFC cytotoxicity assay.
row,Compound,"activity change, negative = cytotoxicity"
1,COc1cc(C(=O)NCC2(N(C)C)CCCCC2)cc(OC)c1OC,inactive: 11.1%
2,Cc1cccc(C(=O)NCC2(N(C)C)CCCCC2)c1,inactive: -8.94%
3,CC(C)Oc1ccc(C(=O)NCC2(N(C)C)CCCCC2)cc1,inactive: -6.73%
4,COc1cccc(C(=O)NCC2(N3CCOCC3)CCCCC2)c1,inactive: -21.8%
5,CC(C)COc1ccc(C(=O)NCC2(N(C)C)CCCCC2)cc1,inactive: -13.9%
6,COc1ccc(C(=O)NCC2(N(C)C)CCCCC2)cc1Cl,inactive: 4.23%
7,CCOc1cccc(C(=O)NCC2(N(C)C)CCCCC2)c1,inactive: 19.6%
8,CN(C)C1(CNC(=O)c2ccccc2[N+](=O)[O-])CCCCC1,inactive: -1.11%
9,CCCCOc1ccccc1C(=O)NCC1(N(C)C)CCCCC1,inactive: -11.5%
10,CN(C)C1(CNC(=O)c2cccc(Cl)c2)CCCCC1,inactive: 18.8%
11,CN(C)C1(CNC(=O)c2ccccc2F)CCCCC1,inactive: -2.4%
